## Apparent affinities of Ab-14 variants for a coronavirus HR2 peptide

All variants were tested on one target, the spike HR2 peptide PDVDLGDISGINAS (SARS-CoV-2).

Each scFv is VH, a (GGGGS)3 linker, VL, as in the parent Ab-14, and differs from it in the CDRs of the heavy chain only.
VH: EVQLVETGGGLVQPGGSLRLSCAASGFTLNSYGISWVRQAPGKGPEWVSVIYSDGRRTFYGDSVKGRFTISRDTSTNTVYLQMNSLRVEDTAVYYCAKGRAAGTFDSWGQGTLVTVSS
VL: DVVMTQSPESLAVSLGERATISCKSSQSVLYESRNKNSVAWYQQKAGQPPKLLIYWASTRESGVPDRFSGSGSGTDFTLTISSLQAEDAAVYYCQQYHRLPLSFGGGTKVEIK

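The starting antibody came from a phage panning campaign against this peptide. These sequences belong to a second round, designed from the earlier measurements on random variants of the parent. Group labels follow the data file (Ctrl: baseline library sampled from a position-specific scoring matrix, with some repeated check sequences; GPLM: also part of the Gaussian process libraries; Gen: genetic algorithm; a sequence that several methods proposed may carry one label only). The assay is AlphaSeq: two haploid yeast populations carry antibody and antigen on their surface. After mating in shaken culture at 30 °C for 16 h, diploids were selected and their barcode pairs sequenced. A regression on co-assayed BCL2-family reference pairs converts the normalised counts of each replicate to an apparent Kd. The assay was run in six technical replicates.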

Each variant is given by its three heavy chain CDRs, as the data file delimits them; those of the parent are GFTLNSYGIS, VIYSDGRRTFYGDSVK, GRAAGTFDS. The read-out is the apparent dissociation constant on a log10 scale (nM): the lower, the stronger. Averages over replicates are reported, and they cover detected replicates only. An entry "nd" has no value in the source: the pair was not observed among the diploids in that replicate. This suggests poor binding but is not conclusive. Of ten entries with the parent sequence, four were seen in most replicates (averages 0.34 to 2.37), three in one and three in none, so single entries are noisy.

CDR-H1 | CDR-H2 | CDR-H3 | group | replicates, log10 nM | mean log10 Kd (nM) | empty controls
GGTLNDYGIS | VIYSDGWRTFYSDSVK | GRAAGTFDS | Ctrl | nd / nd / nd / nd / 2.29 / nd | 2.29 | 0 of 18
GFTLNTYGIS | VIYSDGRRTFYGDSVK | GRAALTFDS | Ctrl | nd / nd / nd / nd / nd / nd | nd | 0 of 18
GFGLNSYGIS | VIYSDGFGTFYGDSVK | GRAAGTFDS | Ctrl | nd / nd / nd / 2.18 / nd / nd | 2.18 | 1 of 18 (1.84)
GFTLNMYGIS | VIYSDGRRTFYGDSVK | GRAAKTFDQ | Ctrl | nd / nd / nd / nd / nd / nd | nd | 0 of 18
GFTLNEYGIH | VIYSDGRRTFYKDSVK | GREKDTKDW | Ctrl | nd / 0.62 / 0.91 / 1.28 / nd / 1.23 | 1.01 | 0 of 18
GFDLNSYGIS | VIYSDGRRTFYGDSVK | GNAAGTFEP | Ctrl | nd / nd / nd / nd / nd / nd | nd | 0 of 18
GFTLNDYGIS | VIYSDGERTFYGDSVK | GRAAGTSDS | Ctrl | nd / nd / nd / nd / nd / nd | nd | 0 of 18
GFALNDYGIS | VMYSDGRRTFYGDSVK | GRAAGTFDS | Ctrl | 1.53 / 0.88 / 0.70 / 0.71 / 2.01 / 1.66 | 1.25 | 0 of 18
GFTLNSYGIS | VIYADGRRTFYGDSVK | GRVAGTFDS | Ctrl+GPLM_Gen | -0.10 / 0.74 / -0.48 / -0.32 / 1.11 / -0.16; 0.41 / 0.45 / 0.32 / -0.20 / 0.47 / 0.56 | 0.23 | 1 of 36 (2.08)
GFTLNSYGIS | VIYSDGMRTFYGDSVK | GRQAGTFDV | Ctrl | nd / nd / nd / nd / nd / nd | nd | 0 of 18
GFTLQSYGIS | VIYSDGRRTFYGDSVK | GEAAGTFDS | Ctrl | nd / 1.14 / 0.97 / 1.40 / nd / 3.61 | 1.78 | 0 of 18
GFTLNSYGIS | VIYSDGRRTFYLDSVD | GRFAGTFDS | Ctrl | nd / nd / nd / nd / nd / nd | nd | 0 of 18
DFTLNSYGIS | VIYADGRRTFYGDSVK | GVAAGTFDS | Ctrl | 0.54 / 0.79 / 1.81 / 2.29 / 1.29 / 0.66 | 1.23 | 0 of 18
GFHLLSYGIS | VIYADGRRTFYADSVK | NSAQGTFDS | Ctrl | nd / nd / nd / nd / nd / nd | nd | 1 of 18 (0.91)
GFTLNSYGIS | VIYSDGRRTFYSDSVK | GKEHGTFDS | Ctrl | nd / nd / nd / nd / nd / nd | nd | 0 of 18
GFTLNDHGVS | VIYSDGRRTFYGDSVK | GRAAGTFDS | Ctrl | 1.34 / 1.76 / 2.54 / 1.01 / 1.14 / 1.29 | 1.51 | 0 of 18
GFTLNSYGIS | VIYSDGRRTFYGDKVK | GRAAKTFDQ | Ctrl | nd / nd / nd / nd / nd / nd | nd | 0 of 18
GFTLNEYGIS | VIYSDGRRCFYLDSVK | GNAAGTFTS | Ctrl | 2.66 / 3.38 / 2.54 / 2.18 / 2.45 / nd | 2.64 | 1 of 18 (2.32)
TFTLNSYGIS | VIYSDGRRTFYGDKVK | GRLAGTFDS | Ctrl | 1.50 / nd / nd / nd / nd / nd | 1.50 | 0 of 18
GFTLNSYGIS | VIYSDGRRTFYGDSVK | GEAAGTFRS | Ctrl | nd / 2.83 / nd / nd / nd / nd | 2.83 | 2 of 18 (1.89)
GFTLNSYGIS | VIYSDGRRTFYSDSVK | GYFAGTFDS | Ctrl | 1.90 / nd / 0.94 / 2.80 / nd / 2.62 | 2.06 | 0 of 18
GFTLNSYGIS | VIYWDGRRTFYGDSVK | GRAAVTFDS | Ctrl | nd / nd / nd / nd / nd / nd | nd | 1 of 18 (0.78)
GFALNSYGIS | VIYSDGRRTFYGDSVK | GRQAGTFDS | Ctrl | 1.92 / 0.70 / 1.12 / 1.62 / 1.09 / 1.01 | 1.24 | 0 of 18
GFTLNSYGIS | VIYADGRRAFYGDSVK | GRAAGTFDS | Ctrl | 0.64 / 0.99 / 1.18 / 0.62 / 1.09 / 1.43 | 0.99 | 1 of 18 (1.72)
GFTLNSYGIS | VIYSDGRRTFYGDQVK | GRAATTFDS | Ctrl | nd / nd / nd / nd / nd / nd | nd | 0 of 18
GFTLNSYGIS | VIYSDGRRTFYGDSVK | GRAAGTFDA | Ctrl | 0.60 / 1.79 / 0.87 / 1.05 / 1.13 / 1.23 | 1.11 | 0 of 18
GFTLNSYGIS | VIYSDGRRTFMGDSVK | GRARGTFDS | Ctrl | nd / nd / nd / nd / nd / nd | nd | 1 of 18 (3.56)
GFTLNSYGIS | VIYSDGRRTFYGDSFK | GRAAGTFNS | Ctrl | nd / nd / nd / nd / nd / nd | nd | 0 of 18
GFTLNSYGIS | VIYSDGRRTFYHDSVK | GRAAGTFDS | Ctrl | nd / nd / 0.12 / nd / 0.37 / nd | 0.24 | 0 of 18
GDGLNSYGIS | VIYSDGERTFYGDSVK | GSAAGTFDS | Ctrl | nd / nd / nd / nd / nd / 1.62 | 1.62 | 0 of 18
GITLNMYGIS | VIYSDGRRTFYQDSVK | GRAAGTFDS | Ctrl | nd / nd / nd / nd / -0.88 / nd | -0.88 | 0 of 18
GFTLNEYGIS | VIYSDGRRTFYGGSVK | GSAAGTFSS | Ctrl | nd / nd / nd / nd / nd / nd | nd | 0 of 18
GFTLSSYGIS | VIYSDGRRTFYGDSVK | GEQAGTFDQ | Ctrl | 0.15 / 2.55 / nd / 0.84 / 0.67 / 1.73 | 1.19 | 0 of 18
GFTLNSYGIS | VIYSDGRRTFYIDSFK | GRAAGTFDS | Ctrl | nd / nd / nd / nd / nd / nd | nd | 0 of 18
GFTLNSYGIS | VIYSDGRRTFYGDSVK | GTAAGTFDS | Ctrl | 1.49 / 1.54 / 0.47 / nd / -0.07 / 1.03 | 0.89 | 1 of 18 (0.90)
GFTLNSYGIS | VIYSDGRRTFYGDSVK | GRIAGTFES | Ctrl | 1.59 / 1.41 / 1.84 / 1.94 / 1.82 / 2.92 | 1.92 | 1 of 18 (3.53)
GFTLQSYGIS | VIYSDGRRTFYGDSVK | GRNAATFDW | Ctrl | nd / nd / nd / nd / nd / nd | nd | 0 of 18
GFTLNSFGIS | VIYSDGRRTFYADSVK | GRGAGTFDG | Ctrl | nd / nd / nd / nd / nd / nd | nd | 0 of 18
GFTLNDYGIS | VIYSDGRRTFYGDSVK | GRAAGTFCS | Ctrl | 1.70 / 2.35 / nd / 2.26 / nd / 3.78 | 2.52 | 0 of 18
GQTLNEYGIS | VIYSDGRRTFYVDSVK | GRAAGGFDS | Ctrl | nd / nd / nd / nd / nd / nd | nd | 1 of 18 (1.71)
GRTLNSYGIS | VIYSDGRRTFYGDSVR | GRAAGTFDS | Ctrl | nd / nd / nd / nd / nd / nd | nd | 0 of 18
GFTLNSYGIS | VIYSDGRRTFYGNDVK | GPAAGTFDS | Ctrl | nd / nd / nd / 2.15 / nd / 4.86 | 3.51 | 1 of 18 (2.75)
GVTLNSYGIS | VIYSDGRRTFYGDSVK | GTAAGTFDS | Ctrl | nd / nd / nd / 2.30 / nd / nd | 2.30 | 0 of 18
GFTLNSYGIS | VIYSDGRRTFYIDQVK | GRAAGTPPL | Ctrl | nd / nd / nd / nd / nd / nd | nd | 0 of 18
KFTLNSYGIS | VDYSDGRRTFYGDSVK | GRAAGTFDS | Ctrl | nd / nd / nd / nd / nd / nd | nd | 0 of 18
GFTLNSYGIS | VIYSDGKRTMYGDSVK | GRAAGFFDS | Ctrl | nd / nd / nd / nd / 3.88 / nd | 3.88 | 1 of 18 (2.25)
GFTLNSYGIS | VIYSDGERTAYGDSVK | GKAASTFDS | Ctrl | nd / nd / nd / nd / nd / nd | nd | 0 of 18
GPTLNSYGIS | VIYSDGERTFYGDSVK | GRAAITFDS | Ctrl | nd / nd / nd / nd / nd / nd | nd | 0 of 18
GFTLNSYGIS | VIYSDGRRTFYADSVK | DRAAGTFDD | Ctrl | nd / nd / nd / nd / nd / nd | nd | 0 of 18
GFTLNKYGIS | VIYSDGRRTFIGDSVK | GQAAGTFDS | Ctrl | nd / nd / 2.16 / nd / nd / nd | 2.16 | 0 of 18
GFTLNSYGIS | VIYSDGRRTFYGDSVK | GRHAVTFDS | Ctrl | nd / nd / nd / nd / nd / nd | nd | 0 of 18

From the list, the first 4 with no signal in any replicate:

CDR-H1,CDR-H2,CDR-H3,group,"replicates, log10 nM",mean log10 Kd (nM),empty controls
GFTLNTYGIS,VIYSDGRRTFYGDSVK,GRAALTFDS,Ctrl,nd / nd / nd / nd / nd / nd,nd,0 of 18
GFTLNMYGIS,VIYSDGRRTFYGDSVK,GRAAKTFDQ,Ctrl,nd / nd / nd / nd / nd / nd,nd,0 of 18
GFDLNSYGIS,VIYSDGRRTFYGDSVK,GNAAGTFEP,Ctrl,nd / nd / nd / nd / nd / nd,nd,0 of 18
GFTLNDYGIS,VIYSDGERTFYGDSVK,GRAAGTSDS,Ctrl,nd / nd / nd / nd / nd / nd,nd,0 of 18

Where one sequence has several entries in the source, the replicates are listed entry by entry, parted by semicolons. Three control strains display no target. For all heavy chain designs, 1% of the pairings with them gave a signal, with a median of 2.08 and one signal in twenty below 0.84, so weak values seen in few replicates may be background. Also given: how often the same scFv was detected with the empty control strains, with their mean in brackets. The authors' rule: three or more of the six replicates give a measured affinity, fewer mean a poor binder. Values of this round are not directly comparable with the first-round values of the same sequences.

Data: MIT Lincoln Laboratory AlphaSeq set, Li et al. 2023, doi:10.1038/s41467-023-39022-2, as distributed in FLAb.